{"source": "patent US20250099548A1", "about": "“PHARMACEUTICAL COMPOSITION FOR PREVENTING OR TREATING DEGENERATIVE BRAIN DISEASES, CONTAINING GLUCAGON-LIKE PEPTIDE-1 AND INTERLEUKIN-1 RECEPTOR ANTAGONIST” (GI INNOVATION, INC., priority 2022, published 2025)", "molecules": {"B1": {"name": "GI210B1C1: fusion protein dimer comprising an IgG4 Fc domain and an IL-1 receptor antagonist; SEQ ID NO: 24 (protein)", "chain": "ESKYGPPCPPCPAPEAAGGPSVFLFPPKPKDQLMISRTPEVTCVVVDVSQEDPEVQFNWYVDGVEVHNAKTKPREEQFNSTYRVVSVLTVLHQDWLNGKEYKCKVSNKGLPSSIEKTISKAKGQPREPQVYTLPPSQEEMTKNQVSLTCLVKGFYPSDIAVEWESNGQPENNYKTTPPVLDSDGSFFLYSRLTVDKSRWQEGNVFSCSVLHEALHNHYTQKSLSLSLGGGGGSGGGGSGGGGSGGRPSGRKSSKMQAFRIWDVNQKTFYLRNNQLVAGYLQGPNVNLEEKIDVVPIEPHALFLGIHGGKMCLSCVKSGDETRLQLEAVNITDLSENRKQDKRFAFIRSDSGPTTSFESAACPGWFLCTAMEADQPVSLTNMPDEGVMVTKFYFQEDE", "modifications": "dimer; IgG4 Fc-IL-1Ra"}}, "assay_type_in_all_cases": "in vivo, mouse", "key": {"Tg-APP/PS1 mice [1]": {"tested_on": "Tg-APP/PS1 mice", "experiment": "Aβ plaque deposition in brain tissue, thioflavin S staining", "conditions": "Example 2; GI210B1, GI210B1C1, GI210B1CN at 1.2, 0.7778, 1.1745 mg/kg intraperitoneal, 4 times for 2 weeks", "procedure": "Accordingly, in order to confirm the effect of treating Alzheimer's disease by intraperitoneal administration of GI210B1, the Tg-APP/PS1 mice administered with GI210B1 (Tg+GI210B1) and the Tg-APP/PS1 mice (Tg+Veh), a control group, were sacrificed, and then the brain tissue was extracted, and Aβ plaques were stained using thioflavin S, and then the degree of Aβ plaque deposition in the parietal cortex, hippocampus, and piriform cortex regions was analyzed.\nSpecifically, for immunohistochemical analysis using thioflavin S staining, the brain was collected after perfusion for the mouse with 4% paraformaldehyde, and then the brain was further fixed with 4% paraformaldehyde overnight at 4° C. The brain tissue sections were prepared by cutting the fixed brain tissue to a thickness of 40 m using a vibratome. […] At that time, the stained image was analyzed using MetaMorph Microscopy Automation & Image Analysis software (Molecular device). The amount of plaque was quantified and expressed as the number of plaques per unit area and the sum of the plaque areas. […]\nIn the same manner as in Example 1.3 above, the mice were sacrificed, and then the brain tissue was extracted, and the degree of Aβ plaque deposition in the parietal cortex, hippocampus, and piriform cortex regions was analyzed using thioflavin S, which stains Aβ plaques. […]"}, "Tg-APP/PS1 mice [2]": {"tested_on": "Tg-APP/PS1 mice", "experiment": "MAP-2 immunofluorescence staining of hippocampal CA1 region", "conditions": "Example 2; GI210B1, GI210B1C1, GI210B1CN at 1.2, 0.7778, 1.1745 mg/kg intraperitoneal, 4 times for 2 weeks", "text": "Long-term memory is regulated at synapses between axons of neurons and dendrites of target neurons, and the microstructure of neurons is greatly influenced by the state of neuron health. Changes in the microstructure of dendrites of neurons are important for maintaining memory. The microstructure of the dendrites of such neurons can be observed as an image by staining with an anti-MAP-2 antibody (GeneTex, CatNo. GTX133109) located in the dendrites.\nTherefore, in order to determine the mechanism of action of cognitive function improvement and memory recovery effects of GI210B1, the Tg-APP/PS1 mice administered with GI210B1 (Tg+GI210B1), the wild type mice (WT) as a normal group, and the Tg-APP/PS1 mice (Tg or Tg+Veh) as a control group were sacrificed, and then the brain tissue was extracted, and the microstructural status of the dendrites (dendritic process) of the hippocampus was analyzed.\nIn the same manner as in Example 1.4.1 above, the mice from each group were sacrificed, and then the brain tissue was extracted, and the microstructural status of the dendrites of the hippocampus was analyzed."}, "Tg-APP/PS1 mice [3]": {"tested_on": "Tg-APP/PS1 mice", "experiment": "DCX immunochemical staining of hippocampal DG region", "conditions": "Example 2; intraperitoneal, 4 times for 2 weeks", "text": "DCX (doublecortin) is continuously expressed during the 2-3 weeks during which immature neurons mature, and is expressed in […]. For this reason, DCX is used as a marker of neurogenesis, indicating the degree of neuronal differentiation and after the metaphase of newly generated neurons.\nIn order to confirm the effect of GI210B1 on the decreased neurogenesis in the DG (dentate gyrus) region of the hippocampus of Tg mice, the Tg-APP/PS1 mice administered with GI210B1 (Tg+GI210B1), the wild type mice (WT) as a normal group, and the Tg-APP/PS1 mice (Tg or Tg+Veh) as a control group were sacrificed, and then the brain tissue was extracted, and the DG region of the hippocampus was stained with DCX.\nIn the same manner as in Example 1.4.2 above, the mice from each group were sacrificed, and then the brain tissue was extracted, and the DG region of the hippocampus was stained with DCX."}}, "note": "Entries after “also recorded” stand apart in the source; their conditions may differ."}
{"molecule": "B1", "values": [{"measurement": "amount of plaque deposited in the brain (number of plaques per unit area and sum of plaque areas)", "setting": "Tg-APP/PS1 mice [1]", "result": "tended to be reduced; also recorded: statistically significantly reduced compared to the control group (Tg+Veh)"}, {"measurement": "expression level of MAP-2 in the CA1 region of the hippocampus", "setting": "Tg-APP/PS1 mice [2]", "result": "higher than that of the control group (Tg+Veh); also recorded: recovered to a level similar to that of the normal group"}, {"measurement": "number of DCX positive cells in the DG region of the hippocampus", "setting": "Tg-APP/PS1 mice [3]", "result": "statistically significantly increased compared to the control group (Tg+Veh), and was recovered to a level similar to that of the normal group (WT+Veh)"}]}
